Active and inactive are the calls of the source. The rule behind the calls is not given here.
Test system: von Hippel-Lindau disease tumor suppressor/Epidermal growth factor receptor (Homo sapiens), P00533+P40337 [UNDEFINED MUTATION]
Assay: PROTAC activity at VHL/EGFR Del19 mutant in human HCC827 cells assessed as EGFR degradation treated after 8 hrs under serum starvation condition at 10 to 1000 nM measured after 16 hrs by Western blotting analysis
Assay type: cell-based
Conditions: dose 10-1000 nM

Protein sequences, listed by entry. Tags and fused reporters are not part of them.
von Hippel-Lindau disease tumor suppressor/Epidermal growth factor receptor (Homo sapiens), P00533+P40337, UniProt P40337, whole entry, looked up, stated change not applied: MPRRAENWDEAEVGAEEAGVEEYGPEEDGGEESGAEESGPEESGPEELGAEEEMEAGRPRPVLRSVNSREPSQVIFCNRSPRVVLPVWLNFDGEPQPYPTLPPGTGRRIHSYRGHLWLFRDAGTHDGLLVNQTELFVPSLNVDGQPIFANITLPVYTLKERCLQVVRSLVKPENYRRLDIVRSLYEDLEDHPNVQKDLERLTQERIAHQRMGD

**Q.** With COc1cc2ncnc(Nc3ccc(F)c(Cl)c3)c2cc1OCCCN1CCN(C(=O)C[C@H](NC(=O)[C@@H]2C[C@@H](O)CN2C(=O)[C@@H](c2cc(C)no2)C(C)C)c2ccc(-c3scnc3C)cc2)CC1 as the compound, how does the Activity read?
**A.** Active
